The values that follow come from US10639298B2 (Biohaven Pharmaceutical Holding Company Ltd., priority 2015, dated 2020).

Each structure is given as a SMILES string.

This experiment relates to Melanoma C8161 cells. As to the kind of experiment: Inhibition of human melanoma cell xenograft growth. The conditions noted are these: 7.5 mg/kg p.o. gavage every day for 21 days; P<0.01 (t test). In kind it is in vivo, nude mice. How it is done:
Melanoma C8161 cells were inoculated s.c. into nude mice at […]. […] Mice were treated every day for 21 days, and tumor sizes were measured twice weekly with a Vernier caliper.
(In xenograft studies the graft and the host belong to different species.)

Consider `Nc1nc2ccc(OC(F)(F)F)cc2s1` [riluzole], for which the “Tumor volume vs untreated or vehicle-treated controls” value is given as “significant reduction in tumor volume”.
